In the experiment the test system is RH1^RC1 T. brucei. Format: cell-based.
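Wherever ratio (fold difference in EC50 between RH1^RC1 and wild type) is given: resistant clone selected by stepwise exposure to the aziridinyl benzoquinone prodrug in culture.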

As for `NC(=O)c1cc(N2CC2)c([N+](=O)[O-])cc1[N+](=O)[O-]` [CB1954], the “Susceptibility of RH1 selected (RH1^RC) lines relative to wild type” value was “cross‐resistance”.

With `S=P(N1CC1)(N1CC1)N1CC1` [ThioTEPA], the “ratio (fold difference in EC50 between RH1^RC1 and wild type)” value amounted to 1.4.

The record behind these values is paper PMC5656836, “Distinct activation mechanisms trigger the trypanocidal activity of DNA damaging prodrugs” (Molecular Microbiology, 2017).
